Source: ChEMBL document CHEMBL1153611, “Determination of permeability and lipophilicity of pyrazolo-pyrimidine tyrosine kinase inhibitors and correlation with biological data” (Eur J Med Chem, 2009)

experiment: Lipophilicity, log K in methanol water; format: physicochemical

Compound	log K
CCSc1nc(Nc2cccc(Cl)c2)c2cnn(CC(Cl)c3ccccc3)c2n1 (configuration not stated)	6.75
CSc1nc(NCc2ccccc2Cl)c2cnn(CC(Cl)c3ccccc3)c2n1 (configuration not stated)	5.94
CCSc1nc(NCCc2ccccc2)c2cnn(CC(Cl)c3ccccc3)c2n1 (configuration not stated)	6.28
CSc1nc(NCCc2ccccc2)c2cnn(CC(Cl)c3ccccc3)c2n1 (configuration not stated)	6.01
CSc1nc(Nc2cccc(Br)c2)c2cnn(CC(Cl)c3ccccc3)c2n1 (configuration not stated)	6.37
COc1ccc(CNc2nc(SC)nc3c2cnn3CC(Cl)c2ccccc2)cc1 (configuration not stated)	5.8
CSc1nc(Nc2cccc(Br)c2)c2cnn(CC(Cl)c3ccc(F)cc3)c2n1 (configuration not stated)	6.69
